# Measured affinities in a library of Ab-14 light chain variants

Source: Li et al. 2023 (doi:10.1038/s41467-023-39022-2), MIT Lincoln Laboratory and A-Alpha Bio; data file from the FLAb repository.

Target peptide (SARS-CoV-2 spike, HR2 region): PDVDLGDISGINAS

Parent scFv Ab-14: VH joined to VL by a 15-residue (Gly4Ser)3 linker. Changes lie in the light chain CDRs alone.
VH: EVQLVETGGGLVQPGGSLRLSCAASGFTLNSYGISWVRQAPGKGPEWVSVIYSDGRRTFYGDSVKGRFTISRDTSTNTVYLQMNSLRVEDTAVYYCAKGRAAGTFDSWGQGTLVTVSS
VL: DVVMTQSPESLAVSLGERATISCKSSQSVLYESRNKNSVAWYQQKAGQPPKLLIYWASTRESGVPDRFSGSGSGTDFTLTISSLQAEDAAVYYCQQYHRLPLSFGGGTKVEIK

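Phage display of a naive human antibody library on the peptide gave the parent. These sequences belong to a second round, designed from the earlier measurements on random variants of the parent. Their group label is 14L_En_HC (En: ensemble of fine-tuned language models; HC: hill climbing; a sequence that several methods proposed may carry one label only). The scFvs were displayed on barcoded MATa yeast, the peptide on MATalpha yeast. Mating (16 h, 30 °C) was followed by selection of diploids and sequencing of their barcodes. The ratio of observed to expected reads was calibrated, replicate by replicate, on BCL2-family standards whose Kd was known from biolayer interferometry. The assay was run in six technical replicates.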

The parent's light chain CDRs are KSSQSVLYESRNKNSVA, WASTRES, QQYHRLPLS; each variant's own CDRs replace them letter for letter.
Values are log10 of the apparent Kd in nM; lower means stronger binding.
A pair that was not seen in that replicate is written "nd"; this usually means weak binding, but a binder can also be missed.
Background: pairings of all light chain designs with three empty control strains gave a value in 4% of cases (median 2.64, 5th percentile 1.59). Values in that range, when seen in few replicates, are hard to tell from nonspecific mating. Also given: how often the same scFv was detected with the empty control strains, with their mean in brackets.
The parent sequence was in this pool as ten entries: three were never detected, three once, and four in most replicates, with averages from 0.34 to 2.37.
The authors' rule: three or more of the six replicates give a measured affinity, fewer mean a poor binder.
Values of this round are not directly comparable with the first-round values of the same sequences.

CDR-L1,CDR-L2,CDR-L3,"log10 Kd, replicates",empty controls
TLVQSVMGGSRTYNSVA,NAETRYD,QHYHRLPLS,nd / nd / nd / nd / nd / nd,0/18
KLYVSTMLESHDKNSIA,DLSTRGN,QQYHRLPLS,1.55 / 0.85 / 1.03 / 1.12 / 1.30 / 0.63,1/18 (2.63)
TLSQSVDLESVHKNSIA,DLMTRES,QQYHRLPLS,0.37 / 0.24 / -0.01 / -0.06 / 0.07 / 0.28,0/18
KLSATYRYESQNKNSIA,EMTTRES,QCYHRLPLS,1.49 / 0.53 / 0.65 / 0.66 / 1.32 / 1.26,0/18
HISYSMNHLSKNKNSVA,NQQTRES,QQYHRLPLS,nd / 3.82 / nd / nd / 2.28 / nd,1/18 (2.52)
HFSQVTMYGSWNRNSVA,QTSTREE,QQYDRLPLS,nd / nd / 2.57 / nd / nd / nd,1/18 (3.29)
TISQMLLMQTSHKNSVA,GEETRYS,QQYHRLPLS,0.89 / 0.84 / 0.65 / 0.47 / 0.77 / 1.11,0/18
KLGQLTAIESRNNNSVA,QMDTRES,QQYDRLPLS,0.90 / 0.99 / 1.05 / 1.52 / 0.97 / 1.12,0/18
TISSSMRYESSLKNAIA,NAQTRES,QQYHRLPIS,0.28 / 0.09 / 0.14 / -0.06 / 0.13 / 0.03,0/18
KLSISHQVESISKSNVA,EMVTRES,QQYDRLPLS,0.54 / 0.75 / 0.87 / 0.49 / 0.38 / 0.76,0/18
KLPLATMVEMVSKNNVA,ELSTRGS,QQYNRLPLS,1.07 / 0.36 / 0.80 / 1.84 / 0.35 / 0.99,0/18
MVGQGLMGESRAKNSIA,QASLRFD,QQYHRLPLI,1.37 / 1.85 / 1.56 / 1.65 / 1.03 / 1.34,1/18 (2.44)
MFSQLFMYGSRNYNSVA,QASTREN,QQYHRLPLI,0.69 / 0.13 / 0.33 / 0.75 / 0.49 / 0.19,1/18 (4.18)
KLGQMVLTGSYVKNSVA,QSSTREN,QQYHRLPLS,nd / nd / 0.32 / nd / 1.66 / 1.49,0/18
IISGVMLMESRHKNSVA,NAETREY,QHYDRLPLS,nd / nd / 1.42 / nd / 2.15 / nd,0/18
KISQMYRYESQNSSSIA,EVSTRLN,QSYHRLPLS,nd / nd / nd / nd / 2.17 / nd,1/18 (2.62)
KLYFNVGTMAHNKQSIA,DMERRED,QQYHRLPLS,-0.01 / -0.11 / -0.05 / -0.20 / -0.09 / 0.02,5/18 (2.67)
KLLQEVTGHSRNRNSVA,HNSTRED,QQYDRLPLM,nd / 2.07 / nd / nd / 2.78 / 2.27,0/18
MISQSFLIGMKAKNSVA,QTSTREE,QQYDRLPLI,0.18 / 0.31 / 0.25 / 0.18 / 0.33 / 0.44,1/18 (1.92)
KLGQMTAIESRNNNSVA,QMDTRES,QQYDRLPLS,0.86 / 1.06 / 1.54 / 0.94 / 1.37 / nd,1/18 (1.88)
KFGQGVHVESIMSNSIA,QTSTREE,QQYDRLPLS,0.78 / 0.64 / 0.13 / 0.45 / 0.46 / 0.25,1/18 (2.25)
HISQMVMYGSCNKNNVA,QVSVREE,QQYHRLPLS,0.35 / 0.59 / 0.51 / 0.07 / 0.50 / 0.89,1/18 (1.82)
KLSLFYRVETRQKNSVA,DNSTRES,QDYDRLPLS,2.94 / 1.62 / 3.12 / 2.10 / 2.75 / 3.43,0/18
SITQLVGYGQRNKNSVA,QMETREN,QQYDRLPLT,0.36 / 0.20 / 0.22 / -0.01 / 0.28 / 0.00,1/18 (2.48)
TIAQSMLYLSNIKNSIA,QAETRED,QQYHRLPIS,0.27 / 0.34 / 0.98 / 0.07 / 0.37 / 0.51,0/18
KVSGLVNFFGHAINSVA,EMETREN,QQYDRLPLS,0.56 / 1.07 / 1.10 / 0.42 / 0.46 / 1.83,2/18 (2.17)
TLTQVTMVESYNKGSVA,QASTRLE,QDYHRLPLS,1.15 / 0.69 / 1.01 / 0.71 / 0.59 / 0.58,1/18 (3.07)
KLGQSSAMTSRNKNNVA,DLNERER,QQYHRLPLS,-0.05 / -0.09 / -0.25 / -0.35 / -0.09 / -0.18,0/18
KLYQMTGLESHAKNSLA,DANRRED,QQYHRLPLS,0.11 / -0.01 / -0.15 / -0.33 / -0.03 / -0.06,2/18 (2.69)
KLSMTMLMESRHKNSVA,ENSTREE,QHYHRLPLS,nd / nd / nd / nd / 4.81 / nd,2/18 (2.22)
KLYVSTMLETHDKNSIA,DLSTRGN,QQYHRLPLS,0.68 / 0.46 / 0.56 / 0.34 / 0.25 / 0.57,2/18 (2.36)
ALSQSMDMTSRNKNSVA,DLSVREN,QQYHRLPLS,0.56 / 0.22 / 0.32 / 0.36 / 0.59 / 0.33,1/18 (2.18)
MISQSFLIGMKAKNSVA,QTSTREN,QQYDRLPLS,0.56 / 0.66 / 0.60 / 0.32 / 0.28 / 0.73,0/18
KLSMMYQHTSKNKNNIA,ERSTREE,QQYHHLPLS,2.11 / 1.81 / 1.01 / 1.07 / 0.90 / 1.20,1/18 (2.55)
MMGKGLMGESRAKNSIA,QASLRED,QQYHRLPLI,0.71 / 0.35 / 0.17 / -0.04 / 0.39 / 0.27,0/18
KFGQMVLTGSYVKNSVA,QSSTREN,QQYDRLPLS,0.64 / 0.93 / 0.35 / 0.40 / 0.55 / 0.62,1/18 (1.89)
MISDLTMYGSRNKNSVA,DLSTRGS,QQYFRLPLS,-0.06 / -0.03 / -0.20 / -0.14 / -0.02 / 0.03,1/18 (2.25)
KLYFNVGTASHNKQSIA,DMERRED,QQYHRLPLS,0.40 / 0.38 / 0.42 / 0.38 / 0.46 / 0.89,2/18 (2.22)
NFPQEVMYESHFKNNVA,QTSTREQ,QQYDHLPLS,0.20 / 0.23 / 0.11 / 0.00 / 0.13 / 0.23,1/18 (2.25)
KISWNYLIESKNLNSVA,EMTTREY,QDYDRLPLS,2.49 / 3.29 / nd / 3.13 / nd / 2.79,1/18 (3.18)
KLSQVTHSEMRNKNSIA,EMVTREV,QQYDRLPLS,0.79 / 0.44 / 0.51 / 0.69 / 2.25 / 1.34,0/18
KISMMSTIESIMHNSVA,QTSTREN,QQYDRLPLS,1.48 / 1.82 / 1.77 / 1.73 / 1.16 / 1.63,0/18
SLAESAHMESRNKNSVA,DNSTRES,QHYHRLPLS,nd / nd / nd / nd / nd / nd,2/18 (2.81)

Excerpt, the first 3 entries:

CDR-L1,CDR-L2,CDR-L3,"log10 Kd, replicates",empty controls
TLVQSVMGGSRTYNSVA,NAETRYD,QHYHRLPLS,nd / nd / nd / nd / nd / nd,0/18
KLYVSTMLESHDKNSIA,DLSTRGN,QQYHRLPLS,1.55 / 0.85 / 1.03 / 1.12 / 1.30 / 0.63,1/18 (2.63)
TLSQSVDLESVHKNSIA,DLMTRES,QQYHRLPLS,0.37 / 0.24 / -0.01 / -0.06 / 0.07 / 0.28,0/18